According to patent publication US12606546B2, “Small molecule inhibitors of calcium channel activity and uses thereof” (Arizona Board of Regents on Behalf of the University of …, priority 2020, dated 2026):

Columns and labels:
[1] = target: low voltage activated (LVA) T-type calcium channels (Rattus norvegicus, UniProt Q9EQ60); test: Fura-2AM calcium imaging, 40 mM KCl-evoked Ca2+ influx in DRG neurons; assay type: cell-based; conditions: 20 μM, maximum with overnight treatment
rats = test: Rotarod performance test; conditions: intrathecal, over 300 minutes, cutoff 180 seconds (vehicle 172±7.3)
[2] = system: Madin-Darby Canine Kidney (MDCK) cells; test: Cytotoxicity in MDCK cells; conditions: read-out: cytotoxic concentration, CC50
[3] = system: adenocarcinomic human alveolar basal epithelial (A549) cells; test: Cytotoxicity in A549 cells; conditions: read-out: cytotoxic concentration, CC50
naive rats = test: Elevated plus maze (EPM) test; conditions: 2 μg/5 μL i.t., 1 hour post injection vs vehicle
hERG channel = hERG channel (Homo sapiens, UniProt Q12809); test: hERG two-electrode voltage clamp in oocytes; conditions: 10 μM
[4] = system: calcitonin gene related peptide (CGRP) release; test: KCl-evoked CGRP release from lumbar spinal cord; conditions: 20 μM, 90 mM KCl
[5] = system: substantia gelatinosa neurons; test: Spontaneous EPSC recording in spinal cord slices; conditions: 20 μM
DRG sensory neurons = test: Constellation pharmacology of DRG sensory neurons
paclitaxel-treated rats = test: Paclitaxel-induced neuropathy, mechanical allodynia; conditions: 2 μg/5 μL intrathecal; at two hours post-injection, lasting at least two hours
[6] = system: tetrodotoxin-sensitive or -resistant voltage-gated sodium currents; test: Whole-cell patch clamp of Na+ currents in DRG neurons; conditions: 20 μM overnight, TTX-sensitive or -resistant
SNL rats = test: Spinal nerve ligation (SNL) model, mechanical allodynia; conditions: 2 μg/5 μL intrathecal
[7] = system: high voltage activated calcium channels; test: Fura-2AM calcium imaging, 90 mM KCl-evoked Ca2+ influx in DRG neurons; conditions: 20 μM overnight, rat DRG neurons, relative to 0.01% DMSO
T-type Ca2+ channels = T-type Ca2+ channels (Rattus norvegicus, UniProt Q9EQ60); test: Whole-cell patch clamp of T-type Ca2+ currents in DRG sensory neurons
L-type (CaV1.x) = test: Whole-cell patch clamp, pharmacologically isolated L-type currents in DRG neurons; conditions: 20 μM applied overnight
N-type (CaV2.2) = N-type (CaV2.2) (Rattus norvegicus, UniProt Q02294); test: Whole-cell patch clamp, pharmacologically isolated N-type currents in DRG neurons; conditions: 20 μM applied overnight
R-type (CaV2.3) = R-type (CaV2.3) (Rattus norvegicus, UniProt Q07652); test: Whole-cell patch clamp, pharmacologically isolated R-type currents in DRG neurons; conditions: 20 μM applied overnight
[8] = system: CaV3.1, CaV3.2 or CaV3.3 T-type Ca2+ channel subunits; test: 40 mM KCl-evoked Ca2+ influx in DRG neurons after siRNA knockdown of CaV3 isoforms
P/Q-type (CaV2.1) = P/Q-type (CaV2.1) (Rattus norvegicus, UniProt P54282); test: Whole-cell patch clamp, pharmacologically isolated P/Q-type currents in DRG neurons; conditions: 20 μM applied overnight

C[C@@H](c1ccccc1)n1nnnc1[C@@H](c1ccsc1)N1CCC(n2c(=O)[nH]c3ccccc32)CC1
time of application after which inhibition was observed [1]: at least 30 minutes
time on the rotarod (average) (rats): 170 ± 9.6 s
CC50 [2]: > 100 µM
CC50 [3]: > 100 µM
anxiety index (EPM) (naive rats): no significant change in anxiety index
inhibition of hERG channel (hERG channel): did not inhibit
KCl-evoked CGRP release from spinal cords [4]: inhibits KCl-evoked CGRP release
spontaneous EPSC amplitude ([5]; substantia gelatinosa neurons): no significant decrease
sEPSC frequency ([5]; substantia gelatinosa neurons (DMSO 1.96±0.21 Hz)): 1.26±0.17 Hz
AUC of Ca2+ response to capsaicin stimulation (DRG sensory neurons; 20 μM overnight vs vehicle): decreased
number of functional cell subclasses (DRG sensory neurons; 20 μM overnight vs vehicle): more functional subclasses were present
percent of cells responding to ATP (DRG sensory neurons; 20 μM overnight vs vehicle): increased sensitivity
percent of cells responding to capsaicin (DRG sensory neurons; 20 μM overnight vs vehicle): decreased sensitivity
KCl-evoked Ca2+ response in neurons that responded to ATP and menthol (DRG sensory neurons; 20 μM overnight, 90 mM KCl): significantly decreased
mechanical allodynia, paclitaxel (paclitaxel-treated rats): reversal of mechanical allodynia
effect on voltage-gated sodium currents [6]: no effects
duration of increase of PWTs, SNL (SNL rats): 2 h
paw withdrawal thresholds (mechanical allodynia), SNL (SNL rats; 7 days post injury): significantly increased PWTs
inhibition of Ca2+ influx when DRGs were depolarized with 90 mM KCl [7]: 33.9±4.0%
effect of acute application on T-type currents (T-type Ca2+ channels; acute (<10 min), 20 μM): no inhibition of T-type currents
effect on T-type channel gating properties (T-type Ca2+ channels; overnight treatment): did not alter the channel gating properties
effect on L-type (CaV1.x) current (L-type (CaV1.x)): had no effect
effect on N-type (CaV2.2) current (N-type (CaV2.2)): had no effect
effect on R-type (CaV2.3) current (R-type (CaV2.3)): had no effect
inhibition of 40 mM KCl evoked Ca2+ influx ([8]; knock down of CaV3.2, 20 μM overnight): failed to inhibit
inhibition of 40 mM KCl evoked Ca2+ influx ([8]; knockdown of CaV3.1, 20 μM overnight): significant inhibition
inhibition of 40 mM KCl evoked Ca2+ influx ([8]; knockdown of CaV3.3, 20 μM overnight): significant inhibition
inhibition of 40 mM KCl evoked Ca2+ influx ([8]; scramble siRNA-transfected cells, 20 μM overnight): 53%
effect on P/Q-type (CaV2.1) current (P/Q-type (CaV2.1)): had no effect
